Literature values in paper PMC11859092 (Pharmaceutics, 2025).

Conditions: in some cases; cited from earlier work

O=C1Nc2ccc(Cl)cc2[C@@](C#CC2CC2)(C(F)(F)F)O1 [EFV, Efavirenz]
plasma concentrations, highest reached: ≤ 25300 ng/mL
